Measured values as given in ChEMBL document CHEMBL4622967, “Selective Class I HDAC Inhibitors Based on Aryl Ketone Zinc Binding Induce HIV-1 Protein for Clearance” (ACS Med Chem Lett, 2020).

Molecular target: T1, Histone deacetylase 8 (Homo sapiens, UniProt Q9BY41)
T1 sequence (Q9BY41 whole entry): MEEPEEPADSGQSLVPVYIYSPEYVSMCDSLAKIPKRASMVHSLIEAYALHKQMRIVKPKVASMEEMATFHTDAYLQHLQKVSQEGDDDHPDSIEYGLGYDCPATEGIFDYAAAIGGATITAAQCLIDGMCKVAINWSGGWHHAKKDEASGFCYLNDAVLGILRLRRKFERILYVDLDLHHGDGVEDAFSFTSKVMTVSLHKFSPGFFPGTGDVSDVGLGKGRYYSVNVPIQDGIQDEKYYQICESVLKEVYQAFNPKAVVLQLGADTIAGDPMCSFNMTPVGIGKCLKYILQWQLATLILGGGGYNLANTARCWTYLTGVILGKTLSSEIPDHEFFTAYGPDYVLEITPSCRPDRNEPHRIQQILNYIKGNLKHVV

Q: Which IC50 does the source give for `N[C@@H](CCCCCC(=O)c1ccon1)c1cnn(-c2ccc(F)cc2)n1` here?
A: 445 nM

Q: For `N[C@@H](CCCCCC(=O)c1ccon1)c1cnn(-c2ccc(F)cc2)c1`, which IC50 is on record?
A: 466 nM
